ChEMBL document CHEMBL2086387 (ACS Med Chem Lett, 2012)

Protein sequences, listed by entry. Tags and fused reporters are not part of them.
UniProt P0DMS8, whole entry: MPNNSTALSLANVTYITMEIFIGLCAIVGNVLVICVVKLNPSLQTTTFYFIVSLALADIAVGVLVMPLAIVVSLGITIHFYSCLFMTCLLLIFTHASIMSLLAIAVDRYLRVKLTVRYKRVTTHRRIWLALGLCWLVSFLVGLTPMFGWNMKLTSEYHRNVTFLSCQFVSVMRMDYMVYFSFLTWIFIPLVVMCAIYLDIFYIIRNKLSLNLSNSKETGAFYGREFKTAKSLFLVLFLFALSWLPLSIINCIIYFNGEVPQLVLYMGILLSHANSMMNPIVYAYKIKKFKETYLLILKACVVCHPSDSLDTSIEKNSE

Target: Adenosine receptor A3 (Homo sapiens, UniProt P0DMS8)
Test: Displacement of [3H]I-AB-MECA from human recombinant adenosine A3 receptor expressed in CHO cells after 60 mins by liquid scintillation counting
Assay type: cell-based
Summary of the method: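 Competition binding with standard 3H- or 125I-labeled high-affinity nucleoside radioligands at the human receptor subtype; Ki derived from binding curves. Means ± standard error, n = 3 unless noted (n = 2 where flagged).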

Row | Compound | Ki [nM]
1 | O[C@@H]1[C@H](O)[C@@H]2C[C@@H]2[C@H]1n1cnc2c(NCCc3ccccc3)nc(C#Cc3ccccc3)nc21 | 20
2 | O[C@@H]1[C@H](O)[C@@H]2C[C@@H]2[C@H]1n1cnc2c(NCCc3ccccc3)nc(C#Cc3ccccc3Cl)nc21 | 37
